Reference: patent US20240342117A1, “Inhalable Epinephrine Formulation” (De Motu Cordis Pty Ltd, priority 2022, published 2024)
Where two headings read alike, the source gives them in different places. Values belong to the compound of their own block, whether it stands above or below them.

How the values were obtained:
[1] = not given; remark: listed apart in the source

Structure (SMILES): CNC[C@H](O)c1ccc(O)c(O)c1 [160916M2, Epinephrine bitartrate]
Dv50 (Sample: Drum 1 bottom): 1.77 μm | Dv90 (Sample: Drum 1 bottom): 3.65 μm | Volume below 5 μm (Sample: Drum 1 bottom): 98.37% | Dv50 (Sample: Drum 1 top): 1.83 μm | Dv90 (Sample: Drum 1 top): 3.71 μm | Volume below 5 μm (Sample: Drum 1 top): 98.27% | Dv50 (Sample: Final Sample): 1.79 μm | Dv90 (Sample: Final Sample): 3.65 μm | Volume below 5 μm (Sample: Final Sample): 98.42% | Dv50 (Sample: Trial 1): 1.83 μm | Dv90 (Sample: Trial 1): 3.76 μm | Volume below 5 μm (Sample: Trial 1): 97.77%

Structure (SMILES): CNC[C@H](O)c1ccc(O)c(O)c1 [E80-18002, Epinephrine bitartrate]
Dv50 (Sample: Unmicronised): 37.50 μm | Dv90 (Sample: Unmicronised): 193.89 μm | Volume below 5 μm (Sample: Unmicronised): 8.18%

Structure (SMILES): CNC[C@H](O)c1ccc(O)c(O)c1 [E80-18002M1, Epinephrine bitartrate]
Dv50 (Sample: Drum 1): 1.65 μm | Dv90 (Sample: Drum 1): 3.55 μm | Volume below 5 μm (Sample: Drum 1): 98.39% | Dv50 (Sample: Trial 1): 1.62 μm | Dv90 (Sample: Trial 1): 3.23 μm | Volume below 5 μm (Sample: Trial 1): 99.52%

The remaining lines, values ahead:

Dv50 (Sample: Drum 1): 1.52 μm | Dv90 (Sample: Drum 1): 3.25 μm | Volume below 5 μm (Sample: Drum 1): 99.20% | Dv50 (Sample: Trial 1): 1.57 μm | Dv90 (Sample: Trial 1): 3.38 μm | Volume below 5 μm (Sample: Trial 1): 98.91%
Structure (SMILES): CNC[C@H](O)c1ccc(O)c(O)c1 [E80-18002M2, Epinephrine bitartrate]

Dv10 ([1]; 4 weeks (2-8° C.)): 3.49 μm | Dv50 ([1]; 4 weeks (2-8° C.)): 248 μm | Dv90 ([1]; 4 weeks (2-8° C.)): 847 μm | Volume below 10 μm ([1]; 4 weeks (2-8° C.)): 22.62% | Dv10 ([1]; 4 weeks (40° C./75% RH)): 2.40 μm | Dv50 ([1]; 4 weeks (40° C./75% RH)): 294 μm | Dv90 ([1]; 4 weeks (40° C./75% RH)): 1200 μm | Volume below 10 μm ([1]; 4 weeks (40° C./75% RH)): 30.53% | Dv10 ([1]; Initial): 0.310 μm | Dv50 ([1]; Initial): 1.73 μm | Dv90 ([1]; Initial): 57.8 μm | Volume below 10 μm ([1]; Initial): 79.94%
Structure (SMILES): CNC[C@H](O)c1ccc(O)c(O)c1 [micronized epinephrine bitartrate, epinephrine bitartrate]
